For 1 molecule, Relative potency results are on record in ChEMBL document CHEMBL1123639, “Nitrogen-bridged conformationally constrained etorphine analogues. Synthesis and biological evaluation” (1987).

For this assay, the species on record is Rattus norvegicus. Kind of assay: The compound was tested for relative analgesic potency with respect to the potency of morphine.

For the molecule `CN1CC[C@]23c4c5ccc(O)c4O[C@H]2[C@@H](O)C=C[C@H]3[C@H]1C5`, the Relative potency was found to be 1.
